Target: T1, hMAO-B (Homo sapiens, UniProt P27338)
T1 construct: purchased Sigma-Aldrich; host or cells: insect cells (BTI-TN-5B14), recombinant baculovirus
Test: hMAO-B inhibitory activity, Amplex Red continuous fluorometric assay
Type: biochemical
Conditions: IC50 (MAO-A)/IC50 (MAO-B)
Experimental: The synthesized derivatives were screened for the hMAO-A and hMAO-B inhibitory activities by using an extremely sensitive continuous fluorometric assay containing Amplex Red (10-acetyl-3, 7-dihydroxyphenoxazine) reagent. The enzymatic H2O2 was measured with and without extracts or standards.
Unless otherwise noted, the analytical grade chemicals required for synthesis and antioxidant activity procured from Sigma Aldrich, Merck, Hi-media Laboratories. The analytical assessment of the synthesized derivatives for hMAO inhibition was measured by their effects on the generation of hydrogen peroxide (H2O2) by p-tyramine (a general substrate for both MAO isoforms), utilizing the Amplex Red MAO assay kit (Sigma USA) and microsomal MAO enzymes extracted by insect cells (BTI-TN-5B14) expressed on recombinant baculovirus containing cDNA probes for MAO isoforms (Sigma-Aldrich USA) were used as source for the two microsomal MAO isoforms. […] Melting points were recorded on Sonar melting point apparatus in open capillary tubes. The nuclear magnetic resonance (NMR) spectra 1H NMR and ^13C NMR spectra were determined in DMSO and deuterated CDCl3 respectively on a spectrometer (Model: Bruker Avance II 400 NMR). […]

By UniProt entry, the sequences of proteins in these tests, tags left out.
UniProt P27338, whole entry: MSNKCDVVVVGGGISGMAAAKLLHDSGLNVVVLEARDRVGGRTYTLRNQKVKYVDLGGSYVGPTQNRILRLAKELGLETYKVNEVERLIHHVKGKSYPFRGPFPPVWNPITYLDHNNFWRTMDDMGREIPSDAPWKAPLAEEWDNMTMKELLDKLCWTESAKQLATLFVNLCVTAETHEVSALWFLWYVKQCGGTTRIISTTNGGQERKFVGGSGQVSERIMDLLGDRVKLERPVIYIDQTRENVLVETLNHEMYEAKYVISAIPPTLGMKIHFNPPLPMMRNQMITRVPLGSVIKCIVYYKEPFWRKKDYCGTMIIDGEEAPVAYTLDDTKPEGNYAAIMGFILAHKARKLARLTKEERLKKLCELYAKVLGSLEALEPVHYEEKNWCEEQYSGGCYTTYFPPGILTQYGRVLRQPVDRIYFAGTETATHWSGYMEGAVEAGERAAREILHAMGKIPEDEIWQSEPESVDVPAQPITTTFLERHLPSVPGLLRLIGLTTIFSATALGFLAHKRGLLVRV

## O=C(/C=C/C=C/c1ccc2c(c1)OCO2)N1CCOCC1 [Compound 9]
  Selectivity index: 0.312

Reference: PMC7027018 (BMC Chemistry, 2020)
